Drawing on publication PMC3266667 (Frontiers in Pharmacology, 2012), this text covers IC50 for one compound.

Protein sequences, listed by entry. Tags and fused reporters are not part of them. Lines headed by an entry give the natural chain unless they say otherwise; changes in a name come on top.
UniProt Q12809: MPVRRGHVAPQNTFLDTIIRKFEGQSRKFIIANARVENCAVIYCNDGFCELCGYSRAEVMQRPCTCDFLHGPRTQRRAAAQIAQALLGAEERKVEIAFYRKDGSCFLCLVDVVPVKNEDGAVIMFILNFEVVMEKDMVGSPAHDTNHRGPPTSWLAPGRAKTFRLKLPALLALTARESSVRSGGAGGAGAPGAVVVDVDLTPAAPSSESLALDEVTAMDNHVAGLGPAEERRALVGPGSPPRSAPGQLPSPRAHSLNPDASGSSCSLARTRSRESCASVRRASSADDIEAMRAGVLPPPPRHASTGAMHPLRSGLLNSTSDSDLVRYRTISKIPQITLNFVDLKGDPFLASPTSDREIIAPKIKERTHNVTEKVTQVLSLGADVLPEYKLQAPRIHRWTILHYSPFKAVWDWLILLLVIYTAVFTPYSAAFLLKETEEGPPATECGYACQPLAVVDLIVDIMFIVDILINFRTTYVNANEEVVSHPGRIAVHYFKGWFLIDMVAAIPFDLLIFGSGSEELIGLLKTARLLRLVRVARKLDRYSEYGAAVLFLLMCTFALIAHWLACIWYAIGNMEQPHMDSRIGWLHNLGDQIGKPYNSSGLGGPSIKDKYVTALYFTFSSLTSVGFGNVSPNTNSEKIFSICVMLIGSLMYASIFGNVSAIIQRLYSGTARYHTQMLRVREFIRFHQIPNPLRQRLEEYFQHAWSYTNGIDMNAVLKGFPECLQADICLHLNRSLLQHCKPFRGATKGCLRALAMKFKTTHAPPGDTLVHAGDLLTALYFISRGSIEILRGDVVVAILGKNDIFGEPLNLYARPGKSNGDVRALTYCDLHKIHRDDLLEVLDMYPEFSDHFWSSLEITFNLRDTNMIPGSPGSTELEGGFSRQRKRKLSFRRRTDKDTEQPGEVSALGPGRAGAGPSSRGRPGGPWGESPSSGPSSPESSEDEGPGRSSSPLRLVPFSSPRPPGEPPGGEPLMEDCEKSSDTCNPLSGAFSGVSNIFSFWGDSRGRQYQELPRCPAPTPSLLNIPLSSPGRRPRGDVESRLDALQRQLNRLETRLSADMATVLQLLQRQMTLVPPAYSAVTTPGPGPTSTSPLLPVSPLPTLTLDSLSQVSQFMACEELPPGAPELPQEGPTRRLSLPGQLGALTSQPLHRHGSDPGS

Test [1] concerns the target T1, hERG K+ channels (Homo sapiens, UniProt Q12809). Put plainly: cell-based.
Test [2] deals with T1, hERG K+ channels. Put plainly: cell-based. This is another data set of the same source.

The structures appear in SMILES notation. Read-outs that look alike come from different tables or passages of the source.

For `CC(C)COCC(CN(Cc1ccccc1)c1ccccc1)N1CCCC1` (centres unmarked) [Bepridil], the figures for the IC50 on hERG K+ channels [1] and against hERG K+ channels [2] were 65 ± 12 nM and 270 nM, respectively.
